Columns and labels:
[1] = molecular target: Histamine H1 receptor (Homo sapiens, UniProt P35367); conditions: read-out: Binding data, Ki ± SEM, previously reported; cited from earlier work
[2] = molecular target: 5-HT2C receptor (Homo sapiens, UniProt P28335); test: NIMH-PDSP radioligand binding, 5-HT2C

Protein sequences, listed by entry. Tags and fused reporters are not part of them. Residues count along the entry.
UniProt P35367, whole entry, species assumed: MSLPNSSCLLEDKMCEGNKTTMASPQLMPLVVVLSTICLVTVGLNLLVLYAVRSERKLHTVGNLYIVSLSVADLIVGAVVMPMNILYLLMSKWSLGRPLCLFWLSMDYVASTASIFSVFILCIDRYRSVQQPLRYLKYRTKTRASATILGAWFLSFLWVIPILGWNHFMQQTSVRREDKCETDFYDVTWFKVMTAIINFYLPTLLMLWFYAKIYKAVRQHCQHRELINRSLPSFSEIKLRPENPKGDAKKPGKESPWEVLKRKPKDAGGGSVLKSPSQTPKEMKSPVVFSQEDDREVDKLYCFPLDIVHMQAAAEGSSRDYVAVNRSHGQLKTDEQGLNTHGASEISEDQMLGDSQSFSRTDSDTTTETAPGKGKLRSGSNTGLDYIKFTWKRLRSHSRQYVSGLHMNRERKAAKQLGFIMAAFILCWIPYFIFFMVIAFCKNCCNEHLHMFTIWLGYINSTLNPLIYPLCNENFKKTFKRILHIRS
UniProt P28335, 33-458: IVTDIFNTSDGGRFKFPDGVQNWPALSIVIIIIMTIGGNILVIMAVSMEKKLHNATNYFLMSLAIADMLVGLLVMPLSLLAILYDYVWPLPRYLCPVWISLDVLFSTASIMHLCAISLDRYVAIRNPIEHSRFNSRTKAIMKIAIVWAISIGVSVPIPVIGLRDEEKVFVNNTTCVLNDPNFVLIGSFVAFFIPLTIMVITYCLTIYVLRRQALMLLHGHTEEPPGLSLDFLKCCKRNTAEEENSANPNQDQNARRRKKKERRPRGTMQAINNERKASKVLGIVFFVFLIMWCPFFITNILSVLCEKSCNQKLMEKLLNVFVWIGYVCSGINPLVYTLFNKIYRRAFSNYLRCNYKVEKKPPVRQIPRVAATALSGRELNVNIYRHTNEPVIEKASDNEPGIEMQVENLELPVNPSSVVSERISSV

O=C(CCCN1CCN(c2ccc(Cl)cc2)CC1)c1ccc(F)cc1 [Compound 3]
Ki [1]: 158 ± 36 nM

OC1(c2ccc(Cl)cc2)CC2CCC(C1)N2CCCOc1ccc(F)cc1 (centres unmarked) [Compound 7, 3-(4-Chlorophenyl)-8-(3-(4-fluorophenoxy)propyl)-8-azabicyclo[3.2.1]octan-3-ol]
Binding data; Ki ± SEM, 5-HT2C [2]: MP (Missed primary assay threshold of 50% inhibition)
